# From patent publication US11285220B2, “Materials and methods relating to linkers for use in protein drug conjugates” (Iksuda Therapeutics Limited, priority 2014, dated 2022)
# Experiments:
# [1] = system: BT474 breast cancer cell tumours; assay: Multi-dose xenograft, effect on tumour growth; format: in vivo, mice; settings: 21 day therapy period
# Procedure: (§1) The breast cancer cell line utilised was BT474 (Her2 expresser, with high susceptibility to trastuzumab).
# Tumour growth was determined by changes in tumour volumes.
# [2] = Multi-dose xenograft, mouse weight as measure of ADC toxicity; format: in vivo; settings: BT474 xenograft mice, over the therapy period
# Description: as §1
# Mouse weight is used (as shown in FIG. 40) to measure the toxicity of the ADC in vivo. […] This is indicative of the ADCs of the present invention being of suitable toxicity levels for use commercially.
# [3] = SEC analysis of albumin-doxorubicin conjugates (monomer content, aggregation); format: physicochemical
# Procedure: The extent of albumin-doxorubicin conjugate aggregation was determined by analysis on non-reducing SDS-PAGE and SEC chromatography.
# 5 μl of each conjugate was loaded on to a SEC HPLC column equilibrated with 150 mM sodium phosphate buffer at pH 7.0 and eluted at flow rate of 1 mL/min with detection at 280 nm.
# [4] = Stability of albumin-linker conjugates in glutathione (ESI-MS); format: physicochemical; settings: 1 mM glutathione, PBS pH 7.4, 37 °C, day 4
# [5] = system: BT474 breast cancer cell tumours; assay: Xenograft tumour maturity histopathology (haematoxylin and eosin); format: in vivo, mice; settings: 0.1 mg/kg, 10 day therapy period
# [6] = 0.1 mg/kg, relative to untreated group
Substance,"tumour growth (tumour volume) [1, 6]",tumour growth (tumour volume) ([1]; 5 mg/kg),tumour growth (tumour volume) ([1]; 10 mg/kg),effect on mouse weight [2],further results
Trastuzumab-maleimide-val-cit-4-aminobenzoyl-MMAE: comparison ADC comprising a known maleimide linker [reference compound],tumour growth delay,complete responses,complete responses,negligible effect,–
albumin-DOX,–,–,–,–,monomer content (SEC) ([3]; 150 mM sodium phosphate pH 7.0): approximately 97.6%
albumin-PL12 conjugate,–,–,–,–,Albumin-GSH signal [4]: ~8%
native albumin: wild-type serum albumin,–,–,–,–,"tendency to aggregate (high molecular weight species, SEC) ([3]; non-conjugated and doxorubicin conjugated samples): 2.4-2.6%"
trastuzumab-PL13-NH-PEG4-val-cit-4-aminobenzoyl-MMAE,tumour growth delay,complete responses,complete responses,negligible effect,reduction in tumour maturity [5]: No reduction
